Earlier results on one substance are cited in US11532831B1, “Redox-active compounds and uses thereof” (Palo Alto Research Center Incorporated, priority 2021, dated 2022).

A word on the Solubility: it is how much of the substance goes into solution per volume.

For data set [1] the following is noted: cited from earlier work.
The conditions of data set [2]: ferricyanide form; cited from earlier work.

Take ferrocyanide/ferricyanide: the “Solubility at pH 7” value in data set [1] was 0.6M. The “Chemical and electrochemical stability: light sensitivity” value in data set [2] was “light sensitive)”.
